From published antibiotic growth screens (doi:10.1038/s41589-023-01349-8)
Some of the results follow.

What follows are compounds tested on A. baumannii ATCC 17978 (assay: relative growth (fraction of control); higher = less inhibition). Settings: 50 µM.
Work on `Cc1cccc(S(=O)(=O)N2C[C@H](O)COC[C@H]3O[C@@H](CC(=O)NCCCN4CCOCC4)CC[C@@H]32)c1` yielded a relative growth of 0.994.
For `O=C(C[C@@H]1C[C@@H]2c3cc(NC(=O)Nc4ccc(C(F)(F)F)cc4)ccc3O[C@@H]2[C@@H](CO)O1)NCc1ccc(Cl)cc1`, the relative growth was 0.941.
For `CN(C)C(=O)C[C@H]1CC[C@H](NC(=O)C2CC2)[C@@H](CO)O1`, the relative growth was 1.03.
In the case of `O=C(O)c1cc(=O)c2ccccc2o1`, the relative growth is reported as 1.23.
In the case of `CCCC(=O)Nc1ncnc2c1ncn2C1O[C@@H]2COP(=O)([O-])O[C@H]2[C@H]1OC(=O)CCC.[Na+]` (some centres undefined), the relative growth is reported as 1.21.
Work on `C[C@H](CO)N1C[C@H](C)[C@H](CN(C)C(=O)c2ccccc2)Oc2cc(C#CC3(O)CCCC3)ccc2S1(=O)=O` yielded a relative growth of 1.05.
Work on `CC(=O)[C@@H](OC(=O)CS(C)(=O)=O)C(=O)NCc1ccccc1` yielded a relative growth of 1.01.
Compound `CCOC(=O)[C@@H](N)[C@@H](O)c1ccccc1` has a relative growth of 1.04.
With `NNC(=O)CNC(=O)c1ccccc1` the relative growth was 1.07.
Compound `CCCCCNC(=N)N/N=C/c1c[nH]c2ccc(OC)cc12.O=C(O)/C=C\C(=O)O` has a relative growth of 0.772.
Compound `NC(=CS(=O)(=O)Cc1ccc(F)cc1)NO` has a relative growth of 1.04.
For `C[C@H]1CN([C@@H](C)CO)C(=O)CCCn2cc(nn2)CO[C@@H]1CN(C)C(=O)Nc1ccc(N2CCCCC2)cc1`, the relative growth was 1.12.
`COc1ccc([Si](C)(C)[C@@H]2[C@@H](CC(=O)N(CCO)Cc3ccccc3)O[C@]3(C(=O)N(Cc4ccc(N5CCC5=O)cc4)c4ccccc43)[C@H]2C)cc1` gave a relative growth of 1.13.
`CO[C@H](CN(C)C(=O)Nc1ccc(C(F)(F)F)cc1)[C@H](C)CN(Cc1ccccc1Cl)[C@H](C)CO` was tested, and the relative growth was 0.621.
In the case of `COc1ccc([Si](C)(C)[C@@H]2[C@@H](CCn3cc(CCO)nn3)O[C@]3(C(=O)N(Cc4ccc(N5C(=O)c6cccc7cccc5c67)cc4)c4ccccc43)[C@H]2C)cc1`, the relative growth is reported as 1.18.
Work on `COC(=O)N[C@H](C(=O)N[C@@H](Cc1ccccc1)[C@@H](O)CN(Cc1ccc(-c2ccccn2)cc1)NC(=O)[C@@H](NC(=O)OC)C(C)(C)C)C(C)(C)C.O=S(=O)(O)O` yielded a relative growth of 0.826.
Compound `Cc1ccc(S(=O)(=O)N2C[C@@H](O)COC[C@H]3O[C@@H](CC(=O)NCc4ccc5c(c4)OCO5)CC[C@@H]32)cc1` has a relative growth of 0.961.
In the case of `CN1CCN(C(=O)C[C@H]2CC[C@@H]3[C@H](COC[C@H](O)CN3Cc3ccc4c(c3)OCO4)O2)CC1`, the relative growth is reported as 1.01.
`C[C@H](CO)N1C[C@H](C)[C@@H](CN(C)C(=O)Nc2ccc3c(c2)OCO3)Oc2ncc(-c3cncnc3)cc2C1=O` showed a relative growth of 1.22.
With `CCN(CC)Cc1ccc(Nc2ccnc3cc(Cl)ccc23)cc1O.Cl.Cl` the relative growth was 0.77.
`S=C1SCN(Cc2ccccc2)CN1Cc1ccccc1` was tested, and the relative growth was 1.28.
Work on `O=C(O)c1cc2cc(Cl)ccc2[nH]1` yielded a relative growth of 1.14.
`O=c1ccc(=O)n(CCO)[nH]1` was tested, and the relative growth was 1.01.
Compound `CN1CCN(C2=Nc3cc(Cl)ccc3Nc3ccccc32)CC1` has a relative growth of 0.917.
`CO[C@H](CN(C)S(=O)(=O)c1cccc(Cl)c1)[C@@H](C)CN([C@H](C)CO)S(=O)(=O)c1cccc(Cl)c1` showed a relative growth of 1.1.
`Nc1cnn(-c2ccccc2)c(=O)c1N` gave a relative growth of 0.854.
`Cc1nccnc1N1CCCCC1.O=S(=O)(O)O` was tested, and the relative growth was 1.
`COC(=O)CSc1cc(C)nc(N)n1` showed a relative growth of 1.
For `CCCCCCCCCCCCCCCC(=O)NCCO`, the relative growth was 0.995.
Compound `Cc1cc(C(C)(C)C)cc(C)c1CC1=NCCN1.Cl` has a relative growth of 1.19.
`COC(=O)C(CC#Cc1ccc2c(c1)[C@]1(C(=O)N2)[C@H](C(=O)N2CCc3cc(OC)c(OC)cc3C2)[C@H]2C(=O)O[C@H](c3ccccc3)[C@H](c3ccccc3)N2[C@@H]1c1ccc(OCCO)cc1)C(=O)OC` gave a relative growth of 1.46.
`CO[C@@H]1CN(C)C(=O)c2ccc(NC(=O)C3CC3)cc2OC[C@H](C)N(C(=O)CN2CCOCC2)C[C@H]1C` was tested, and the relative growth was 0.979.
For `O=C(C[C@H]1C=C[C@H](NC(=O)Cc2ccccn2)[C@@H](CO)O1)NCCCN1CCOCC1`, the relative growth was 1.06.
For `CNC(=O)C[C@H]1CC[C@@H]2[C@H](COC[C@H](O)CN2C(=O)c2ccccn2)O1`, the relative growth was 0.984.
Work on `C=C1C2CC[C@@]3(C)[C@H](c4ccoc4)OC(=O)C[C@]13O[C@H]1CC(O)C(C)(C)C(CC(=O)OC)[C@@]21C` (stereo partly drawn) [3alpha-HYDROXY-3-DEOXYANGOLENSIC ACID METHYL ESTER] yielded a relative growth of 1.04.
Compound `O=C(O)c1n[nH]c2c1CCCC2` has a relative growth of 0.937.
`C[C@H](CO)N1C[C@H](C)[C@H](CN(C)Cc2ccc(F)cc2)Oc2cc(C#CC(C)(C)O)ccc2S1(=O)=O` was tested, and the relative growth was 0.87.
Work on `CN1C(=O)[C@@H]2[C@H](N=CN2CCCO)N(C)C1=O` yielded a relative growth of 0.991.
With `Cc1ccc(-c2nc(Nc3ccccc3F)sc2C)cc1` the relative growth was 1.12.
`C#Cc1ccc(C(=O)NO)cc1` gave a relative growth of 0.945.
With `COc1cccc(OC)c1C(=O)NCCCO` the relative growth was 0.922.
For `c1ccc([C@@H]2Oc3ccccc3[C@@H]3Oc4ccccc4C[C@@H]23)cc1`, the relative growth was 1.18.
With `O=C(C1=C[C@H](c2coc3ccccc3c2=O)C[C@H](OCCCCO)O1)N1CCN(Cc2ccc3c(c2)OCO3)CC1` the relative growth was 1.08.
`CN1C(=O)Cc2cc(NS(C)(=O)=O)ccc21` was tested, and the relative growth was 0.944.
Compound `CO[C@H](CN(C)C(=O)c1ccc2c(c1)OCO2)[C@H](C)CN([C@H](C)CO)S(=O)(=O)c1ccc(C)cc1` has a relative growth of 0.966.
`CCc1cnc2c(c1OC)c(=O)[nH]c(=O)n2C` was tested, and the relative growth was 0.94.
With `Cc1c(N(C)CS(=O)(=O)[O-])c(=O)n(-c2ccccc2)n1C.[Na+]` the relative growth was 0.975.
With `C=CCC[C@H](Cc1ccc(F)cc1)C(=O)OC[C@H](Cc1c[nH]c2ccccc12)NC(=O)[C@H](CC=C)CC(=O)N(CCO)Cc1ccccc1` the relative growth was 1.62.
With `CC(C)CC#Cc1ccc2c(c1)O[C@H](CN(C)C(=O)NC1CCCC1)[C@@H](C)CN([C@H](C)CO)S2(=O)=O` the relative growth was 0.867.
Compound `CC(=O)Nc1ccc(C(=O)NN)cc1` has a relative growth of 0.957.
`CSC[C@H]1O[C@H](n2ccc3c(N)ncnc32)[C@@H](O)[C@H]1O` gave a relative growth of 1.07.
In the case of `O=C(CN1CCOCC1)N[C@@H]1CC[C@@H](CCn2cc(C3CC3)nn2)O[C@H]1CO`, the relative growth is reported as 1.04.
With `CC(C)NC(=O)N[C@H]1C=C[C@H](CC(=O)NCCCN(C)C)O[C@H]1CO` the relative growth was 1.07.
In the case of `Cn1cnc(S(=O)(=O)N[C@@H]2CC[C@H](CC(=O)Nc3ccccc3)O[C@H]2CO)c1`, the relative growth is reported as 0.938.
In the case of `Cc1ccc(C(=N)NO)n1C`, the relative growth is reported as 0.967.
`NNC(=O)c1ccc(/C=N\O)nc1` gave a relative growth of 1.14.
`CCCNC(=O)N[C@@H]1C=C[C@H](CC(=O)N2CCN(C)CC2)O[C@H]1CO` showed a relative growth of 1.04.
In the case of `CCOCCn1c(N2CCCN(C)CC2)nc2ccccc21.O=C(O)/C=C/C(=O)O.O=C(O)/C=C/C(=O)O`, the relative growth is reported as 1.04.
Compound `CC[C@@]1(C)OC(=O)N(C)C1=O` has a relative growth of 0.966.
With `O=C(C[C@H]1CC[C@H](NC(=O)CN2CCOCC2)[C@@H](CO)O1)NC1CCC1` the relative growth was 1.11.
In the case of `CC(C)CC#Cc1ccc2c(c1)O[C@@H](CN(C)C(=O)Cc1ccncc1)[C@@H](C)CN([C@@H](C)CO)S2(=O)=O`, the relative growth is reported as 0.977.
In the case of `CCCS(=O)(=O)N1CCC[C@H](C(=O)NC)C1`, the relative growth is reported as 1.01.
Compound `O=C(CN1CCOCC1)N[C@@H]1CC[C@@H](CCNC(=O)C2CCC2)O[C@H]1CO` has a relative growth of 0.979.
`Cc1ccc(-c2ccc(N)cc2)cc1` showed a relative growth of 1.09.
For `CC1CCc2c(N3CCC(O)CC3)c(F)cc3c(=O)c(C(=O)O)cn1c23` (centres undefined), the relative growth was 0.153.
Work on `COc1cccc(NC(=O)N[C@H]2C=C[C@@H](CC(=O)N3CCN(C)CC3)O[C@@H]2CO)c1` yielded a relative growth of 1.1.
Work on `COCC(=O)N1C[C@@H](C)[C@@H](OC)CN(C)C(=O)c2ccc(NC(=O)Nc3ccccc3)cc2OC[C@H]1C` yielded a relative growth of 0.971.
In the case of `CCCc1cc(=O)oc2cc3occ(-c4ccccc4)c3cc12`, the relative growth is reported as 1.07.
`O=C(C[C@@H]1CC[C@@H]2[C@H](COC[C@H](O)CN2C(=O)C2CC2)O1)NCc1ccncc1` gave a relative growth of 1.18.
With `Cc1cc(=O)n(-c2ccccc2)n1C` the relative growth was 0.975.
Compound `O=c1c2ccccc2oc2ccccc12` has a relative growth of 1.04.
With `C[C@@H]1O[C@@H](O[C@@H]2[C@@H](O)[C@H](O)[C@@H](CO)O[C@H]2c2c(O)cc(O)c3c(=O)cc(-c4ccc(O)cc4)oc23)[C@H](O)[C@H](O)[C@H]1O` the relative growth was 1.09.
`CC(=O)Oc1cncc(C(=O)O)c1` showed a relative growth of 1.03.
For `CCC(=O)Nc1nc(C(=O)NC)cs1`, the relative growth was 1.01.
With `Cc1cccc(S(=O)(=O)N2C[C@@H](O)COC[C@@H]3O[C@H](CC(=O)N4CCN(C)CC4)CC[C@H]32)c1` the relative growth was 1.07.
In the case of `O=C(Nc1ccccc1)c1ccco1`, the relative growth is reported as 1.
In the case of `C[C@H]1CN([C@@H](C)CO)S(=O)(=O)c2ccc(-c3ccc(C(=O)N(C)C)cc3)cc2O[C@@H]1CN(C)C(=O)Cc1ccccn1`, the relative growth is reported as 1.
Compound `COc1cnc(SC)n(C)c1=O` has a relative growth of 0.889.
`N[C@H](c1ccc2c(c1)OCCO2)c1ccco1` was tested, and the relative growth was 0.994.
`CN(C)C(=O)C[C@@H]1C=C[C@H](NC(=O)C2CCOCC2)[C@H](CO)O1` showed a relative growth of 1.04.
In the case of `CC(C)C#Cc1ccc2c(c1)O[C@@H](CN(C)C(=O)c1cccc(F)c1)[C@H](C)CN([C@H](C)CO)S2(=O)=O`, the relative growth is reported as 0.99.
`O=C(CN1CCOCC1)N[C@@H]1CC[C@@H](CCNS(=O)(=O)c2ccccc2F)O[C@@H]1CO` was tested, and the relative growth was 0.747.
With `C[C@H](NC(=O)C[C@H]1CC[C@@H](NC(=O)CN2CCOCC2)[C@@H](CO)O1)c1ccccc1` the relative growth was 1.15.
`CCCc1ncc(C[n+]2ccccc2C)c(N)n1.[Cl-]` showed a relative growth of 1.28.
Compound `COCC#Cc1ccc2c(c1)O[C@@H](CN(C)C(=O)Nc1ccccc1F)[C@H](C)CN([C@@H](C)CO)S2(=O)=O` has a relative growth of 0.986.
With `Cc1ccc(S(=O)(=O)N2C[C@@H](O)COC[C@H]3O[C@H](CC(=O)NCc4ccc5c(c4)OCO5)CC[C@@H]32)cc1` the relative growth was 0.849.
With `CCCCC(=O)C1CCC(c2ccc(Cl)cc2)CC1` (centres undefined) the relative growth was 0.772.
`C[C@@H]1CC[C@H](C)N1c1cc(C(F)(F)F)cc(C(F)(F)F)c1` showed a relative growth of 1.05.
In the case of `CN1CC(=O)NC1=N`, the relative growth is reported as 0.998.
